In assay [1] the target is GST-tagged human AIP p.R304Q (human) (UniProt O00170). The experiment in a line: affinity purification with mass spectrometry; GST pull-down: 10 ug of purified GST-AIP bait (WT or variant) against 2 mg total protein of GH3 cell lysate; eluates of four experiments pooled; TMTsixplex labelling, Orbitrap MS; peptide intensities minus the GST control, variants given as fold of the WT experiment (WT = 1).

Assay [2] has as its target GST-tagged human AIP p.R304* (human) (UniProt O00170). The description is as above.

As for “ACTB_RAT Actin, cytoplasmic 1 (Actb) (from UniProt P60711 1-375) (natural protein)”, the normalized intensity value (fold of the WT AIP pull-down) in assay [1] is 0.3 fold of WT; in assay [2], 0.6 fold of WT.

The record behind these values is PMC5823669, “Multi-chaperone function modulation and association with cytoskeletal proteins are key features of the function of AIP in the pituitary gland” (Oncotarget, 2018).
